Each structure is given as a SMILES string.

A word on the IC50: it is the point on the concentration scale where inhibition reaches its midpoint. Higher therefore signals lower potency.

For assay [1], the target named is T1, Tyrosine-protein kinase ABL1 (Homo sapiens, UniProt P00519, T315I). The format is protein assay.
The target of assay [2] is T1, Tyrosine-protein kinase ABL1.
Assay [3] addresses T2, Tyrosine-protein kinase ABL1 (Homo sapiens, UniProt P00519).
Assay [4] deals with T2, Tyrosine-protein kinase ABL1. The source holds these as a separate data set.

Take `CNC(=O)c1ncc(C#Cc2cc(C(=O)Nc3ccc(CN4CCN(CCO)CC4)c(C(F)(F)F)c3)ccc2C)n1C`: the IC50 in assay [1] was 0.4 nM; in assay [2], 60.2 nM; in assay [3], 0.2 nM; in assay [4], 17.2 nM.

Source of the values: ChEMBL document CHEMBL1781971, “Discovery of 5-(arenethynyl) hetero-monocyclic derivatives as potent inhibitors of BCR-ABL including the T315I gatekeeper mutant” (Bioorg Med Chem Lett, 2011).
